# Experiments:
# subcutaneous KPC tumors = experiment: Antitumor efficacy in C57BL/6 mice bearing subcutaneous KPC tumors; assay type: in vivo; details: FIG. 18
# Protocol: Further studies were performed on C57BL/6 mice bearing subcutaneous KPC tumors (i.e. mice with intact immune system having pancreatic tumors harboring main mutations: mutant KRAS and loss of p53 tumor suppressor). Pancreatic tumors in immune-competent mice are immune suppressive and thus a more realistic model of disease. After tumor formation, mice were injected at day 0, 4, 8, and 12 with treatment arms with equivalent amount of drug (except for PBS/saline and mouse ALDC1-H, which had about 2× amount of drug). […] (Gem, 100 mg/kg, (intraperitoneally) IP, Day 0, 4, 8, 12, and 16).
# [1] = Body weight change at 0.9 mg/kg MMAE equivalent dose; assay type: in vivo, mice; details: Day 0, 4, 8, 12
# Protocol: FIGS. 15A-15E: Body weight change of mice when dosed with 0.9 mg/kg MMAE equivalent dose. […] Body weights of mice during and after treatments were monitored. (n=5). Data shown as mean±standard deviation. Mice in MMAE group (B) were dosed with 0.9 mg/kg MMAE at Day 0 and 4. On Day 6, mice in MMAE group were euthanized due to significant body weight loss (>20%). Mice in MMAE-MAL group were euthanized on Day 12 due to significant body weight loss. Other groups were euthanized on Day 13.
substance,measurement,setting,value
"ALDC1: albumin-drug conjugate: MMAE via mc-vc-pab linker on Cys34 of recombinant human serum albumin, drug to albumin ratio of 1",tumor growth compared to Abraxane+gemcitabine,subcutaneous KPC tumors,significant delay in tumor growth
same,body weight change,[1],minimal weight change
